Earlier results in patent US20040259937A1, “Hydroxycitric acid complex metal salts, composition, and methods” (INDFRAG LIMITED, priority 2003, published 2004).

Conditions: prior art EP 866137

## calcium hydroxycitrate [calcium salt of HCA]
  solubility in water: insoluble
